The target of assay [1] is Orexin/Hypocretin receptor type 1 (Rattus norvegicus) (UniProt P56718). Conditions: Wistar, dose 1.0 mg/kg, route po, time 1.0 hrs.
In assay [2] the target is Orexin receptor type 2 (Homo sapiens, UniProt O43614).
Assay [3] has as its target Orexin/Hypocretin receptor type 1 (Rattus norvegicus) (UniProt P56718). The following applies: Wistar, dose 30.0 mg/kg, route po, time 1.0 hrs.
The target is the same in assay [4]. Conditions: Wistar, dose 100.0 mg/kg, route po, time 1.0 hrs.
The species entered for assay [5] is Rattus norvegicus. The following applies: Sprague-Dawley, dose 30-100 mg/kg, route po, time 1.0 hrs.

Sequences of proteins named here, by UniProt entry; tags and fusion partners are left off.
UniProt P56718, whole entry: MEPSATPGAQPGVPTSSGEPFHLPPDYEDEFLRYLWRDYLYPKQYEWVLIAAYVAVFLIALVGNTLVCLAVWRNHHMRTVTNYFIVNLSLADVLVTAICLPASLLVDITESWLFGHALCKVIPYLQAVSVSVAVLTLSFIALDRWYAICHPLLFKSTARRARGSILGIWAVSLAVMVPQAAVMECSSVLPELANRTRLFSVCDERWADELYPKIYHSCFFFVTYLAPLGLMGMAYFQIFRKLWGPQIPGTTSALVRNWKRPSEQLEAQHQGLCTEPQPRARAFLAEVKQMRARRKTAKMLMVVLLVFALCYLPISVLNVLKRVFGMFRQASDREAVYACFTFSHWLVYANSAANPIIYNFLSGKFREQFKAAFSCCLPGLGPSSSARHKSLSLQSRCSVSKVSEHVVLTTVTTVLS
UniProt O43614, whole entry: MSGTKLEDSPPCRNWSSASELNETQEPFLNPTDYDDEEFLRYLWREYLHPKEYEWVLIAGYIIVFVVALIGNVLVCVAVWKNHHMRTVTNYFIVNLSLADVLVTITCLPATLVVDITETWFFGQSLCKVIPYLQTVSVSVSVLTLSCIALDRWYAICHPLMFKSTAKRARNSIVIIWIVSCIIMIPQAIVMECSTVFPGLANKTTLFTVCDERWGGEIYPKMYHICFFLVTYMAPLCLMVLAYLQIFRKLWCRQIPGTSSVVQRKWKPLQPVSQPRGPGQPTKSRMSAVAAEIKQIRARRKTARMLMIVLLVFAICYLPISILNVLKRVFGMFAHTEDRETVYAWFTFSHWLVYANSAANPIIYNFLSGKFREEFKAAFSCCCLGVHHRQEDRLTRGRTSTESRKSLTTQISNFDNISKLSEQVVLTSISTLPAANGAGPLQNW

Some results are limits rather than exact numbers.

This is an account of results in ChEMBL document CHEMBL5537208, “Discovery of Nivasorexant (ACT-539313): The First Selective Orexin-1 Receptor Antagonist (SO1RA) Investigated in Clinical Trials” (J Med Chem, 2024).

As for `Cc1cccc(C(=O)N2CCOC[C@H]2Cc2cccc(-n3nccn3)c2)c1-n1nccn1`, the Occ in assay [1] is more than 97%.
Consider `Cc1ccc(C(=O)N2[C@H](Cc3cccc(-n4nccn4)c3)COC[C@H]2C)c(-n2nccn2)c1`, for which the midpoint of inhibition in assay [2], the IC50, lay at 386 nM.
Turning to `Cc1ccc(C(=O)N2CCOC[C@H]2Cc2cc(-n3nccn3)ccc2F)c(-n2nccn2)c1`, the Occ is more than 99% in assay [1], 93% in assay [3] and more than 99% in assay [4].
As to `Cc1ccc(C(=O)N2CCOC[C@H]2Cc2cccc(-n3nccn3)c2)c(-n2nccn2)c1` [NIVASOREXANT], the Occ in assay [1], in assay [3] and in assay [4] was more than 99% throughout. Besides, the inhibition result in assay [5] was “Dose-Dependent Effect”.
